These results are taken from PubChem BioAssay AID1326 (NMMLSC, 2008).

The chains behind the UniProt entries cited, without tags or fusion partners.
UniProt P08183, whole entry, looked up: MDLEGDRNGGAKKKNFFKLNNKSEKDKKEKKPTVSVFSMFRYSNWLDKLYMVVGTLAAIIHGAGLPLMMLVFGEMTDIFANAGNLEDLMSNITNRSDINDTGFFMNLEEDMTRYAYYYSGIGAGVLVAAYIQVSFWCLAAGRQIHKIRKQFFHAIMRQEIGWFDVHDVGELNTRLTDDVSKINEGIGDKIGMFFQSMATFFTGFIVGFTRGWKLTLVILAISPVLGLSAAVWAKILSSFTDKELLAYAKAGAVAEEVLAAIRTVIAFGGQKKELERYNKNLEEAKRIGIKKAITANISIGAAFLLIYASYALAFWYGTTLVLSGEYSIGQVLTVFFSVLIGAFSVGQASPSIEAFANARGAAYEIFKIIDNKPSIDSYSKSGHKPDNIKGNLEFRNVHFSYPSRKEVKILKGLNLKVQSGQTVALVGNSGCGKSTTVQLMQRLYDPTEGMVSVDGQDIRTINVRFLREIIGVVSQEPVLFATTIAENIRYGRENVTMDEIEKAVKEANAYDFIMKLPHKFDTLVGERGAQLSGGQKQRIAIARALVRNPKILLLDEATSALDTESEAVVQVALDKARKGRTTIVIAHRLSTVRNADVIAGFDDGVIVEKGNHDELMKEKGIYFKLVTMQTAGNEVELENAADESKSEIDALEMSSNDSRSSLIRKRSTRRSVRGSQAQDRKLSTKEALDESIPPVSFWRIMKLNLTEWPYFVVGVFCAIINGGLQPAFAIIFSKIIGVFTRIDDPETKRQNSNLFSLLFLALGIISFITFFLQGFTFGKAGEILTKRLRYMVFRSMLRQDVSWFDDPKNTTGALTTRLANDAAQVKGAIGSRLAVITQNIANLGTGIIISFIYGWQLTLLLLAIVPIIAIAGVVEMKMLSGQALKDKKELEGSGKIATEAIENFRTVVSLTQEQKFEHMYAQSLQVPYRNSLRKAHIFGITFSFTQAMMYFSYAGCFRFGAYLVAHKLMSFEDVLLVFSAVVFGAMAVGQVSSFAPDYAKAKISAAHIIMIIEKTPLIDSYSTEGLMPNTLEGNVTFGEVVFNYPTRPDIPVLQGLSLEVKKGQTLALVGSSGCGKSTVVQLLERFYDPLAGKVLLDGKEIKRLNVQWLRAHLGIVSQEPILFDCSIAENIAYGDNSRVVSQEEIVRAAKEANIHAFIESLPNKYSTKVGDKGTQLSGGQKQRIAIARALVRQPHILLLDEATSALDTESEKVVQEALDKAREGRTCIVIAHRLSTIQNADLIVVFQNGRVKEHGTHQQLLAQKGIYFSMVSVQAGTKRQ

The list shows a part of the results, in another mix than the full data. The source made the active and inactive calls. No stated cut-off is given here; in the data, active means inhibition above about 40%; inactive means the rest.

In the assay the target is ATP-dependent translocase ABCB1 (Homo sapiens) (UniProt P08183). Briefly: blockers of ABCB1-mediated dye efflux – cell-based, multiplex, flow cytometry, ABCG2 counter-screen, primary screen (AID 1326).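 Further: 0% = vehicle and 100% = reference inhibitor; higher value means more JC-1 retained so stronger ABCB1 efflux block.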 Particulars: CCRF-Adr cells, JC-1 efflux, at 6.6 µM, stronger effect = higher value. In general terms: Flow cytometry measures light scatter and fluorescence of single cells or particles in a stream.
On to `COC(=O)c1cc2c(s1)N=C(c1ccccc1)N(C)P2(=O)N1CCOCC1` (configuration not stated), for which the inhibition (as a rule, the change of the read-out against control, counted positive when it falls) is inactive: -0.22%. For the molecule `Cc1ccc(OP(=O)(Nc2ccccn2)Oc2ccc(C)cc2)cc1`, the inhibition is inactive: 0.55%.

For the molecule `CC(=O)NC(SC(=S)N(CC(C)C)CC(C)C)C(Cl)(Cl)Cl` (configuration not stated), the inhibition is inactive: 0.87%.

Consider `CCC(=O)N1C2C3N(C(=O)CC)C1C1N(C(=O)CC)C(C(N1C(=O)CC)N3C(=O)CC)N2C(=O)CC`, for which the inhibition was inactive: 0.36%. With `O=c1c2cc([N+](=O)[O-])ccc2[nH]c2c([N+](=O)[O-])cc([N+](=O)[O-])cc12`, the inhibition was inactive: -0.14%. `CCNC(=S)/N=C(\N)N[N+](=O)[O-]`: the inhibition was inactive: 0.29%.

Take `O=C(NC1CCS(=O)(=O)C1)NP(=S)(Oc1ccccc1)Oc1ccccc1` (configuration not stated): the inhibition was inactive: 0.59%. Turning to `c1ccc(-c2nn[nH]n2)c(-c2nn[nH]n2)c1`, the inhibition was inactive: -0.05%. In the case of `CCOC(=O)NC(Sc1ccccc1)C(Cl)(Cl)Cl` (configuration not stated) it was inactive: 0.37%; in that of `CC(=O)Nc1ccc(Oc2c([N+](=O)[O-])cc([N+](=O)[O-])cc2[N+](=O)[O-])cc1`, inactive: 4.34%. For the molecule `O=P1(Nc2nc3ccc(Cl)cc3s2)COc2ccccc2O1` (configuration not stated), the inhibition was inactive: 0.19%. On to `CCOc1ccc(C2=NCC(CBr)S2)cc1` (configuration not stated), for which the inhibition is inactive: 0.21%.

`CC(C)(C)C(=O)NC(Sc1ccccc1)C(Cl)(Cl)Cl` (configuration not stated): the inhibition is inactive: 0.15%. Under `CC(C)C(=O)NC(Sc1ccccc1)C(Cl)(Cl)Cl` (configuration not stated) stands inactive: 0.79%; under `O=P(Nc1nccs1)(c1ccccc1)c1ccccc1`, inactive: 0.46%; under `c1nnnn1CCn1cnnn1`, inactive: 0.45%.

As to `CC(=O)NC(SC(=S)N(C)C)C(Cl)(Cl)Cl` (configuration not stated), the inhibition was inactive: 4.33%. In the case of `O=C(OC1CN2CCC1CC2)c1cccc(Cl)c1` (configuration not stated), the inhibition is inactive: 0.75%. For `O=P(Nc1ccccn1)(c1ccc(Br)cc1)c1ccc(Br)cc1`, the inhibition is inactive: 0.8%. Under `O=[N+]([O-])c1ncn(CCn2ncnc2[N+](=O)[O-])n1` stands inactive: 1.23%; under `CCN(/C(=N/P(=O)(N1CCOCC1)N1CCOCC1)N1CCOCC1)c1ccc(OC)cc1`, inactive: -0.28%. With `CC(C)=N/N=C(\N)N[N+](=O)[O-]`, the inhibition is inactive: 0.38%. For the molecule `CN(C)C(=O)OCCc1n(C)cc[n+]1C`, the inhibition is inactive: 0.01%.

On to `CC1CCN(C(=O)Oc2c(Cl)cc(Cl)c3cccnc23)CC1`, for which the inhibition was inactive: 0.45%. Under `COc1ccc(C2=NCC(CBr)S2)cc1` (configuration not stated) stands inactive: -0.31%.

With `O=[N+]([O-])c1cccc2n[nH]nc12`, the inhibition is inactive: 0.35%. Under `CC(=O)N1C2C3N(C(C)=O)C1C1N(C(C)=O)C(C(N1C(C)=O)N3C(C)=O)N2C(C)=O` stands inactive: -0.07%; under `Cc1ccc(NP(=O)(Oc2ccccc2)Oc2ccccc2)nc1`, inactive: -0.18%; under `CCc1nc2c(n1)c1c(non1O)c1c2no[n+]1[O-]`, inactive: 0.17%. In the case of `O=[N+]([O-])c1cc([N+](=O)[O-])c(CCNc2ccccc2)c([N+](=O)[O-])c1`, the inhibition is inactive: 1.73%. Turning to `CC(C)CC(=O)NC(Sc1ccc(Cl)cc1)C(Cl)(Cl)Cl` (configuration not stated), the inhibition was inactive: 0.94%. In the case of `Oc1ccccc1CNc1ccccn1` it was inactive: -0.19%. For the molecule `Cc1c2non([O-])c-2c(C)[n+](=O)[n+]1[O-]`, the inhibition is inactive: 0.38%. On to `O=C(NC(Sc1ccncn1)C(Cl)(Cl)Cl)c1ccccc1` (configuration not stated), for which the inhibition was inactive: 0.15%.

As for `NC(=O)c1cc([N+](=O)[O-])cc([N+](=O)[O-])c1N`, the inhibition was inactive: 0.34%. For `Cc1ccc(N/C(=N/P(=O)(N2CCOCC2)N2CCOCC2)N2CCOCC2)cc1`, the inhibition was inactive: 0.87%.

Consider `COc1ccccc1OP(=O)(Nc1ccc(C)cn1)Oc1ccccc1OC`, for which the inhibition is inactive: 0.76%. Regarding `Clc1ccc(Cl)c(NC2=NCC(CBr)S2)c1` (configuration not stated), the inhibition is inactive: 0.16%. As to `CN1CCCC(OC(=O)C(c2ccccc2)c2ccccc2)C1` (configuration not stated), the inhibition was inactive: 0.14%. For the molecule `CCN(N=Nc1nonc1N)c1nonc1N`, the inhibition is inactive: 0.22%. As for `CCOP(=O)(Nc1ccccc1)OCC`, the inhibition was inactive: 0.17%. Under `Cc1cc(SC(NC(=O)c2ccc(F)cc2)C(Cl)(Cl)Cl)ncn1` (configuration not stated) stands inactive: 0.04%; under `ClCCSc1nnc(-c2cccnc2)o1`, inactive: 0.72%; under `CCN(CC)C(=S)SC(NC=O)C(Cl)(Cl)Cl` (configuration not stated), inactive: 0.6%. As to `CC(C)NC(=O)NP(=O)(Oc1ccccc1)Oc1ccccc1`, the inhibition was inactive: -0.45%. With `O=[N+]([O-])c1cc([N+](=O)[O-])c(-c2ccn[nH]2)s1`, the inhibition was inactive: 0.05%.

With `Cc1ccc2nc3c(c(C)c2c1)CC(C(Cl)Cl)S3` (configuration not stated), the inhibition was inactive: 0.44%. Consider `COc1ccc(N/C(=N/P(=O)(N2CCOCC2)N2CCOCC2)N2CCOCC2)cc1`, for which the inhibition is inactive: 0.02%. Regarding `O=C(OC1CN2CCC1CC2)C12CC3CC(CC(C3)C1)C2` (configuration not stated), the inhibition is inactive: 0.18%.

With `Cc1cc(=O)[nH]c(N[N+](=O)[O-])n1`, the inhibition is inactive: 0.04%.

Turning to `Cc1c2c(nc3ccccc13)SC(C(Cl)Cl)C2` (configuration not stated), the inhibition is inactive: 0.22%.

For the molecule `COc1ccc2nc(NP(=O)(c3ccccc3)c3ccccc3)sc2c1`, the inhibition was inactive: 0.49%. With `CCC(C)N(CC(C)C)C(=S)SC(NC(C)=O)C(Cl)(Cl)Cl` (configuration not stated), the inhibition is inactive: 0.38%. As for `COP1(=S)c2c(C)nn(CCC#N)c2N=C(c2ccc(F)cc2)N1C` (configuration not stated), the inhibition was inactive: 3.16%. Regarding `O=C(COc1ccccc1)OC1CN2CCC1CC2` (configuration not stated), the inhibition is inactive: 0.09%. As for `O=P(Nc1ccccn1)(c1cccc2ccccc12)c1cccc2ccccc12`, the inhibition is inactive: 0.55%.

For `Cc1cc(SC(NC=O)C(Cl)(Cl)Cl)ncn1` (configuration not stated), the inhibition is inactive: 0%.

For the molecule `Cc1cc(SC(NC(=O)c2ccccc2)C(Cl)(Cl)Cl)nc(C(C)C)n1` (configuration not stated), the inhibition was inactive: 0%. Consider `O=P1(Nc2ncccn2)COc2ccccc2OC1`, for which the inhibition is inactive: -0.28%. `O=P1(Nc2ccc(Br)cn2)COc2ccccc2OC1`: the inhibition was inactive: 0.21%. As to `Cc1ccc(OCC(=O)OC2CN3CCC2CC3)cc1` (configuration not stated), the inhibition was inactive: -0.07%.

Take `Cc1nn(-c2ccccc2)c2c1P(=O)(N1CCOCC1)N(C)C(c1ccccc1)=N2` (configuration not stated): the inhibition was inactive: 0.47%. Turning to `CC1CCC(C(C)C)C(OP(=O)(Nc2ccccn2)c2ccccc2)C1` (configuration not stated), the inhibition was inactive: 1.36%. Take `CN(C)C1(CNC(=O)c2ccc(S(C)(=O)=O)cc2)CCCCC1`: the inhibition was inactive: 0.04%.

Regarding `CC(C)/C=N\N=C(\N)N[N+](=O)[O-]`, the inhibition is inactive: 0.45%. As for `O=P1(Nc2ccccn2)COc2ccccc2OC1`, the inhibition was inactive: 2.91%. In the case of `Clc1n[nH]nc1-c1nn[nH][15n]1` it was inactive: 0.06%; in that of `Cc1ccc(NCCc2c([N+](=O)[O-])cc([N+](=O)[O-])cc2[N+](=O)[O-])cc1`, inactive: 1.73%; in that of `COc1cc(C2NCCC3(OCCO3)C2(C)C)cc(OC)c1OC` (configuration not stated), inactive: 8.21%.

Turning to `CCOP(=O)(Nc1cccc2ccccc12)OCC`, the inhibition is inactive: -0.13%. As for `COc1cc(C(=O)NCC2(N3CCOCC3)CCCCC2)cc(Cl)c1OC(C)C`, the inhibition is inactive: 0.36%.

On to `Cc1cccc(OCC(=O)OC2CN3CCC2CC3)c1` (configuration not stated), for which the inhibition is inactive: -0.72%. `O=[N+]([O-])c1ccc2c(c1)nnn2O`: the inhibition was inactive: 0.33%. For the molecule `CCOP1(=S)c2c(C)nn(CCC#N)c2N=C(c2ccc(F)cc2)N1C` (configuration not stated), the inhibition is inactive: -0.26%. Under `CCOP1(=S)c2c(C)nn(CCC#N)c2N=C(c2ccccc2F)N1C` (configuration not stated) stands inactive: 1.41%; under `O=P(Nc1nccs1)(c1ccccc1)c1nc2ccccc2s1` (configuration not stated), inactive: 1.16%. With `O=P(Nc1nccs1)(Oc1ccccc1)Oc1ccccc1`, the inhibition is inactive: 0.62%.
